Only a part is listed here, and it is no random draw. The source made the active and inactive calls.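 The calls were made as follows: active = lowest replicate activity score at least 50, where 100 means six control SD above control mean; inconclusive = lowest score under 50 but half or more replicates reach 50; inactive = the rest.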

The nature of the experiment: polyadenylation inhibitors in yeast reporter cells, primary screen, luminescence, S. cerevisiae (AID 1875).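 Also: yeast exposed to compound for 9 h at 30 °C; higher score means more reporter readthrough which indicates perturbed polyadenylation.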 The note with it: S. cerevisiae SKY197-pL101 polyadenylation reporter, beta-gal luminescence; at 12 µM; hits give high values; efflux-impaired pdr1/pdr3 knockout yeast; score 100 = 6 SD above DMSO.
For the compound `COc1ccc(C(=O)NCC2(N3CCOCC3)CCCCC2)cc1OC`, the activity score was inactive: -19.6%.
For `O=C(OC1CN2CCC1CC2)C1c2ccccc2C=Cc2ccccc21` (stereo unspecified), the activity score is inactive: 2.33%.
Next, `CCc1cc(C(=O)NCC2(N3CCCCC3)CCCCC2)sc1C`: inactive: 7.81%; `N/C(=N\O)c1c(N)no[n+]1[O-]`: inactive: 8.77%; `CCOC(=O)N1CCC(Nc2ccc(C)cc2)CC1`: inactive: 3.36%.
For `CC(C)(C)OC(=O)N1CCC(N(C(=O)c2ccccc2)c2ccc(Cl)cc2)CC1`, the activity score was inactive: 26.1%.
With `N#Cc1ccc(C(=O)NCC2(N3CCCCC3)CCCCC2)cc1`, the activity score was inactive: 10.6%.
As for `c1ccc(CN2CCC(Nc3ccccc3)CC2)cc1`, the activity score was inactive: 13.8%.
Regarding `CCCN1CCC(Nc2cc(OC)cc(OC)c2)CC1`, the activity score is inactive: 7.13%.
On to `CN(C)C1(CNC(=O)c2cccc(C#N)c2)CCCCC1`, for which the activity score is inactive: -0.442%.
Next, `Cc1ccc(C(=O)NCC2(N3CCCCC3)CCCCC2)o1`: inactive: -0.26%.
Consider `Fc1ccccc1NC1CCN(Cc2ccccc2)CC1`, for which the activity score is inactive: 10.4%.
In the case of `COc1cc(OC)cc(C(=O)NCC2(N3CCCCC3)CCCCC2)c1`, the activity score is inactive: -3.65%.
Turning to `CN(C)c1ccc(C(=O)NCC2(N3CCCCC3)CCCCC2)cc1`, the activity score is inactive: 3.94%.
As to `CCN1CCC(Nc2cccc(F)c2)CC1`, the activity score is inactive: 1.04%.
Consider `CCCOc1ccc(C(=O)NCC2(N(C)C)CCCCC2)cc1`, for which the activity score was inactive: 9.52%.
Next, `CC(C)(C)OC(=O)N1CCC(Nc2ccccc2)CC1`: inactive: -16.7%.
For the compound `CCOc1ncccc1C(=O)NCC1(N2CCOCC2)CCCCC1`, the activity score was inactive: -5.94%.
Regarding `CN1CCC(Nc2ccc(F)c(Cl)c2)CC1`, the activity score is inactive: 23.1%.
With `CCCOc1ccc(C)cc1CN(CCCl)CCCl`, the activity score was inactive: 8.06%.
For the compound `CN1CCC(Nc2ccc(Cl)cc2)CC1`, the activity score is inactive: 22.1%.
Consider `CCC(CO)(C(=O)OC1CN2CCC1CC2)c1ccccc1` (stereo unspecified), for which the activity score is inactive: -4.51%.
In the case of `COc1cc(OC)cc(C(=O)NCC2(N3CCOCC3)CCCCC2)c1`, the activity score is inactive: 9.16%.
Next, `COc1cccc(C(=O)N(c2cc(C)cc(C)c2)C2CCN(C(=O)OC(C)(C)C)CC2)c1`: inactive: -14.8%; `CSc1ccccc1C(=O)NCC1(N2CCCCC2)CCCCC1`: inactive: 5.24%; `O=C(NCC1(N2CCCCC2)CCCCC1)c1ccc(=O)[nH]c1`: inactive: -4.7%.
Turning to `COc1ccc(C(=O)NCC2(N3CCCCC3)CCCCC2)cc1`, the activity score is inactive: 3.22%.
In the case of `CC(C)(C)OC(=O)N1CCC(N(C(=O)c2ccccc2)c2ccc(F)cc2)CC1`, the activity score is inactive: -17.2%.
Turning to `CCOC(=O)N1CCC(Nc2ccc(OC)cc2)CC1`, the activity score was inactive: 0.0508%.
Next, `O=C(OC1CN2CCC1CC2)C1c2ccccc2Oc2ccccc21` (stereo unspecified): inactive: -18.3%.
With `N#CC1(Nc2ccccc2)CCN(Cc2ccccc2)CC1`, the activity score was inactive: 9.1%.
For `O=C(NCC1(N2CCOCC2)CCCCC1)c1cc2ccccc2o1`, the activity score was inactive: 2%.
As to `O=C(NCC1(N2CCCCC2)CCCCC1)c1ccc(Cl)nc1`, the activity score is inactive: -5.23%.
Next, `Cc1cc(C)cc(N(C(=O)c2ccccc2)C2CCN(C(=O)OC(C)(C)C)CC2)c1`: inactive: 17.2%.
For the compound `O=C(NCC1(N2CCCCC2)CCCCC1)c1ccc(F)cc1`, the activity score is inactive: 2.62%.
`COc1ccc(NC2CCN(CCc3ccccc3)CC2)c(OC)c1`: the activity score was inactive: -7.44%.
With `CCOC(=O)N1CCC(Nc2ccc(F)cc2)CC1`, the activity score was inactive: 10.1%.
As for `CCOc1ccc(C)cc1CN(CCCl)CCCl`, the activity score was inactive: 7.1%.
Consider `COc1cc(C(=O)NCC2(N(C)C)CCCCC2)ccc1OC(F)F`, for which the activity score is inactive: 10.7%.
On to `CCOC(=O)N1CCC(Nc2cccc(C)c2)CC1`, for which the activity score was inactive: -11.6%.
Consider `Cc1ccc(OCC(C)C)c(CN(CCCl)CCCl)c1`, for which the activity score is inactive: 12.2%.
The result for `O=C(NCC1(N2CCCCC2)CCCCC1)c1cccc([N+](=O)[O-])c1` reads inactive: 22%; that for `CCN1CCC(Nc2ccc(Cl)cc2)CC1`, inactive: -7.85%; that for `N#CC1(Nc2ccccc2)CCN(CCc2ccccc2)CC1`, inactive: -2.98%.
Consider `O=C(NCC1(N2CCCCC2)CCCCC1)c1ccc(OC(F)F)cc1`, for which the activity score was inactive: 5.58%.
For `CN1CCN(CCOC(=O)C(O)(c2ccccc2)c2ccccc2)CC1`, the activity score was inactive: 2.24%.
`COc1ccc(NC2CCN(C(=O)OC(C)(C)C)CC2)cc1`: the activity score was inactive: -9.3%.
Next, `COc1cc(C(=O)NCC2(N3CCCCC3)CCCCC2)ccc1OC(F)F`: inactive: 23.1%; `O=C(NCC1(N2CCOCC2)CCCCC1)c1cc(=O)[nH]c2ccccc12`: inactive: -0.578%; `O=C(NCC1(N2CCCCC2)CCCCC1)c1cccc(C(F)(F)F)c1`: inactive: 3.4%.
On to `COc1cc(OC)c(C(=O)NCC2(N(C)C)CCCCC2)cc1OC`, for which the activity score is inactive: 1.28%.
For the compound `COc1ccc(CN(CCCl)CCCl)cc1Cl`, the activity score was inactive: -12.2%.
Consider `CN(C)c1cccc(C(=O)NCC2(N3CCCCC3)CCCCC2)c1`, for which the activity score was inactive: 3.73%.
Consider `CC(C)c1ccc(NC2CCN(C(=O)OC(C)(C)C)CC2)cc1`, for which the activity score was inactive: 9.21%.
Take `CCCOc1ccc(C(=O)NCC2(N(C)C)CCCCC2)cc1OC`: the activity score was inactive: -5.97%.
Turning to `CN1CCC(Nc2cccc(F)c2)CC1`, the activity score is inactive: -2.06%.

The record behind these values is PubChem BioAssay AID1875 (Broad Institute, 2009).
